Patent US20090131702A1, “METHOD FOR THE PRODUCTION OF METAL CARBOXYLATES AND THE METAL AMINOATE OR METAL HYDROXY ANALOGUE METHIONATE DERIVATIVES THEREOF, AND USE OF SAME AS GROWTH PROMOTERS IN ANIMAL FEED” (NOREL, S.A., priority 2003, published 2009)
Like-named read-outs stand apart in the source and are kept apart here.

Key:
[1] = Zinc concentration in the liver of piglets (Example 11); type: in vivo
Description: At the end of the experiment, one male and one female were selected at random from each batch to take a specimen of liver tissue and determine the zinc content.

[2] = Test in broilers: production parameters, zinc methioninate / formate / complex (Example 12); type: in vivo, broilers of the Ross strain; conditions: 50 ppm of zinc added to base diet
Description: Four experimental treatments were used, comprising the same basic diet supplemented with different sources of zinc:
Control of production parameters was effected at 21 and 42 days of age, recording the live weight and the consumption of feed per batch.

[3] = Test of efficacy in piglets: production parameters, zinc glycinate / formate / complex (Example 14); type: in vivo; conditions: 21-50 days, 130 ppm of zinc added to base diet
Description: The experimental period was 29 days.

[4] = piglets, 220 ppm of zinc added to base diet
[5] = broilers, 0-21 days; 150 ppm of zinc added to base diet
[6] = piglets, 21-41 days; 150 ppm of zinc added to base diet

For O=C[O-].O=C[O-].[Zn+2] [zinc formate, Zinc formate], the “ratio of zinc in the liver to zinc in the diet (in words)” value ([1]; 220 ppm of zinc) was “highest ratio”, the “Ratio Zn in liver/Zn in diet” value ([1]; end of 21-day experiment, 220 ppm of zinc added to base diet) was 25.5c and the “IC (index of conversion)” value ([2]; 0-21 days) was 1.37 b. For the same molecule, the “IC (index of conversion)” value ([2]; 0-42 days) was 1.82 b, the “IC (index of conversion)” value ([2]; 21-42 days) was 2.03 b and the “IC (index of conversion)” value [3] was 1.75 b. For the same molecule, the “IC (index of conversion)” value ([4]; 21-28 days) was 1.16 b, the “IC (index of conversion)” value ([4]; 21-42 days) was 1.47 b and the “IC (index of conversion)” value [5] was 1.26 b. The “IC (index of conversion)” value [6] was 1.63 b.
